Target: Cannabinoid receptor 2 (Homo sapiens, UniProt P34972)
Test: Displacement of [3H]-CP55940 from human CB2 receptor transfected in HEK-293EBNA cells after 90 mins by luminescence counting analysis
Type: cell-based

The chains behind the UniProt entries cited, without tags or fusion partners.
UniProt P34972, whole entry: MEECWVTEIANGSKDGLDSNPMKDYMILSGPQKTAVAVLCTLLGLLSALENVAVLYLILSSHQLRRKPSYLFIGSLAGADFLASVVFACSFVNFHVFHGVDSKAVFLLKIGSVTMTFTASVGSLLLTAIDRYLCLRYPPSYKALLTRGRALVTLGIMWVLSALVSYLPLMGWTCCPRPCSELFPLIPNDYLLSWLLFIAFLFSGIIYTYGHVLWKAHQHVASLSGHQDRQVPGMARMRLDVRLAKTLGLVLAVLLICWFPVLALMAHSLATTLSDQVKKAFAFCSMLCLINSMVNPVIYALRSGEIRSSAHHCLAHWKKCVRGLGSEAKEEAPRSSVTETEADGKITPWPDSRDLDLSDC

`CCCCCCC(C)(C)c1cc(OC)c([C@H]2C=C(CO)[C@H]3C[C@@H]2C3(C)C)c(OC)c1` gave a Ki of 11.2 nM.
